Patent US5571822A, “Antitumor compounds” (The University of North Carolina at Chapel Hill, priority 1994, dated 1996)

Columns and labels:
NCI-H226 = test: NCI in vitro tumor cell screen, NCI-H226 non-small cell lung cancer; assay type: cell-based; details: Homo sapiens, NCI-H226, read-out: logGI50 (converted)
Description: Selected 2-phenyl-4-quinolones were assayed using an in vitro, disease-oriented antitumor screen run by the National Cancer Institute (NCI) (e.g., Boyd 1989). The screen involved approximately 60 different cell lines and is a useful indicator of in vivo antitumor activity for a broad variety of tumor types (Grever et al., 1992; Monks et al., 1991). The cell lines tested included cells derived from the following solid tumor types: leukemia, non-small cell lung, colon, the central nervous system (CNS), melanoma, ovarian, renal, prostate, and breast cancers.

[1] = system: approximately 60 different cell lines; test: NCI in vitro disease-oriented human tumor cell screen, all cell lines; assay type: cell-based; details: read-out: average logGI50 (converted)
Text: The cell lines tested included cells derived from the following solid tumor types: leukemia, non-small cell lung, colon, the central nervous system (CNS), melanoma, ovarian, renal, prostate, and breast cancers.

`CC(=O)Nc1ccc2[nH]c(-c3cccc(F)c3)cc(=O)c2c1` [compound 25, 3'-Fluoro-6-acetamido-2-phenyl-4-quinolone] showed a GI50 (NCI-H226) of 23.4 µM and a GI50 [1] of 15.1 µM.
